Data on one molecule can be found in patent publication US20140349970A1 (ABBVIE INC., priority 2009, published 2014).

Where only a bound is given, the exact number is not on record here.

Usually IC50 stands for the midpoint of a concentration-inhibition curve.

The experiment has as its target Syk catalytic domain (aa 356-635 with a C-terminal His-tag) (Homo sapiens, UniProt P43405). Put plainly: In vitro Syk kinase activity measured by trFRET, Syk catalytic domain. The note with it: read-out: Syk IC50. Here is the method:
In Vitro Syk Kinase Activity Measured by Time-Resolved Fluorescence Resonance Energy Transfer (trFRET)
0.14 nM purified Syk catalytic domain (aa 356-635 with a C-terminal His-tag purified in-house by immobilized metal ion affinity chromatography) was mixed with 0.2 μM peptide substrate (biotin-TYR1, Sequence: Biotin-(Ahx)-GAEEEIYAAFFA-COOH) at varying inhibitor concentrations in reaction buffer: 50 mM MOPSO pH 6.5, 10 mM MgCl2, 2 mM MnCl2, 2.5 mM DTT, 0.01% BSA, 0.1 mM Na3VO4 and 0.001 mM ATP. After about 60 min incubation at rt, the reaction was quenched by addition of EDTA (final concentration: 100 mM) and developed by addition of revelation reagents (final approximate concentrations: 30 mM HEPES pH 7.0, 0.06% BSA, 0.006% Tween-20, 0.24 M KF, 80 ng/mL PT66K (europium labeled anti-phosphotyrosine antibody cat #61T66KLB Cisbio, Bedford, Mass.) and 0.6 μg/mL SAXL (Phycolink streptavidin-allophycocyanin acceptor, cat #PJ255, Prozyme, San Leandro, Calif.). The developed reaction was incubated in the dark either at about 4° C. for about 14 h or for about 60 min at rt, then read via a time-resolved fluorescence detector (Rubystar, BMG) using a 337 nm laser for excitation and monitoring emission wavelengths at 665 nm. Within the linear range of the assay, the observed signal at 665 nm was directly related to phosphorylated product and can be used to calculate the IC50 values. […]

With `COc1ccc2c(c1)c(-c1cc3c(ncc4cnc(C(C)(C)O)n43)[nH]1)cn2C`, the IC50 is less than 100 nM.
